From article PMC9319256, “Human Enzyme PADI4 Binds to the Nuclear Carrier Importin α3” (Cells, 2022)

Legend:
[1] = biological target: T1, Impα3 (Homo sapiens, UniProt O00629); assay: Far-UV CD, complex versus addition spectrum, Impα3; format: binding; conditions: 25 °C; average of six scans
T1 construct: made in house
T1 sequence (O00629 1-521): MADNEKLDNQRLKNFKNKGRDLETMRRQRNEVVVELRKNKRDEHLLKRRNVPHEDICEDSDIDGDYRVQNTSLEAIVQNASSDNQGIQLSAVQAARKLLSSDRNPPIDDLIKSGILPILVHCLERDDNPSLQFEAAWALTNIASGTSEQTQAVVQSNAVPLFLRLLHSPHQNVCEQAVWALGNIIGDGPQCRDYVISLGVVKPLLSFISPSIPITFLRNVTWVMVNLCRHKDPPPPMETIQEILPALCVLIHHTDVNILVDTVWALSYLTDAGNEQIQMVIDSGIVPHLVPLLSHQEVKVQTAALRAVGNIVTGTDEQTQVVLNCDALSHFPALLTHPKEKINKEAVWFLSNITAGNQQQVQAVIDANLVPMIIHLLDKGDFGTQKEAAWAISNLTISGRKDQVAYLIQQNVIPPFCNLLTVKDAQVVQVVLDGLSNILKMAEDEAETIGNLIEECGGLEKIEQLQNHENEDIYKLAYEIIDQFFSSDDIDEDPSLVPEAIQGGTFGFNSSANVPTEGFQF
Description: Far-UV CD spectra were collected on a Jasco J810 spectropolarimeter (Jasco, Tokyo, Japan) interfaced with a Peltier unit. The instrument was periodically calibrated with (+)-10-camphorsulfonic acid. A cell of path length 0.1 cm was used (Hellma, Kruibeke, Belgium). All spectra were corrected by subtracting the corresponding baseline. Concentration of each polypeptide (importin species and either NLS1/2-PADI4 or PADI4) and the buffers were the same used in the fluorescence experiments (Section 2.4).
Isothermal wavelength spectra of each isolated macromolecule and that of the complex were acquired as an average of six scans, at a scan speed of 50 nm/min, with a response time of 2 s and a bandwidth of 1 nm. Handling and preparation of samples were the same described in Section 2.4.1.

[2] = biological target: T1, Impα3; assay: Isothermal titration calorimetry (ITC), Impα3; format: binding; conditions: for ΔG / n (binding stoichiometry or percentage of binding-competent protein) / ΔH (binding enthalpy): Impα3, pH 7.5, 25 °C
Procedure: (§1) Calorimetric titrations for testing the interaction of PADI4, as well as for the interaction of NLS1/2-PADI4 peptides, with both importins, Impα3 and ΔImpα3, were carried out in an Auto-iTC200 automated high-sensitivity calorimeter (MicroCal, Malvern-Panalytical, Malvern, UK). Experiments were performed in 20 mM Tris buffer (pH 7.5), 5 mM TCEP, 150 mM NaCl, and 5% glycerol at 25 °C. PADI4 or the peptide solution (100 μM) in the injection syringe was titrated into the importin solution (10 μM) in the calorimetric cell. The remaining experimental and processing details have been described previously. Due to the presence of glycerol in solution, background injection (included as an adjustable parameter in data fitting) was rather large. The data analysis was conducted in Origin 7.0 (OriginLab, Northampton, MA, USA) with user-defined fitting functions.

[3] = Translational diffusion NMR (DOSY); format: physicochemical; conditions: for hydrodynamic radius Rh: comparison with D of dioxane; for hydrodynamic radius Rh / translational diffusion coefficient D: single exponential; for translational diffusion coefficient D: methyl groups, 100 mM sodium phosphate pH 7.0, 10 °C, 1% dioxane; for translational diffusion coefficient D / oligomerization state / self-association: 100 µM peptide
Procedure: The NMR spectra were acquired at 10 °C on a Bruker Avance 500 MHz spectrometer (Bruker GmbH, Karlsruhe, Germany), equipped with a triple resonance probe and z-pulse field gradients. Spectra were processed with Bruker TopSpin 2.1 (Bruker GmbH, Karlsruhe, Germany). All NMR experiments with NLS1/2-PADI4 peptides were carried out in 100 mM sodium phosphate buffer (not corrected for isotope effects), pH 7.0. Spectra were calibrated with TSP, by considering pH-dependent changes of its chemical shifts; probe temperature was calibrated with pure methanol.
The NLS1/2-PADI4 concentration in DOSY experiments was 100 µM, and 128 scans were acquired, where the gradient strength was varied linearly. Details on the experimental conditions and fitting of the resulting curves have been described elsewhere. A final concentration of 1% of dioxane, with an assumed hydrodynamic radius, Rh, of 2.12 Å [54], was added to the solution.

[4] = Size exclusion chromatography (SEC); format: physicochemical; conditions: for SEC elution volume: Superdex 75 10/30 HR, Tris 20 mM pH 7.6, 250 mM NaCl, 1 mL/min, 280 nm, NLS1 50–400 µM, NLS2 200–400 µM; for Stokes radius: from SEC elution volume, weight-average partition coefficients
Procedure: Size exclusion chromatography experiments were carried out as described on an AKTA FPLC using a calibrated analytical Superdex 75 10/30 HR FPLC column (GE Healthcare, Barcelona, Spain) with both peptides in the following concentration ranges: 50–400 µM of protomer concentration for NLS1-PADI4 and 200–400 µM for NLS2-PADI4 peptide. The elution volumes were obtained from analyses with UNICORN software (GE Healthcare, Barcelona, Spain) from three different measurements. The void volume (7.54 ± 0.06 mL) was determined from blue dextran, and the bed volume (18.98 ± 0.03 mL) was determined from conductivity measurements in a Tris elution buffer (20 mM, pH 7.6, and 250 mM NaCl). Samples were eluted at a rate of 1 mL/min and continuously monitored with an online detector at a wavelength of 280 nm. Analyses were carried out as described. The column was calibrated with the standard set of low-molecular-weight (GE Healthcare, Barcelona, Spain) globular proteins; as a comparison, ribonuclease A, with a molecular weight of 13.7 kDa, eluted at 13.3 mL in such a column.

[5] = tested on: ΔImpα3; assay: Isothermal titration calorimetry (ITC), ΔImpα3; format: binding, human; conditions: for Ka (association constant) / Kd: PADI4 or peptide (100 μM) titrated into ΔImpα3 (10 μM), 20 mM Tris pH 7.5, 5 mM TCEP, 150 mM NaCl, 5% glycerol, 25 °C; for Ka (association constant) / Kd / ΔH (binding enthalpy): 95% confidence interval in parentheses; for Kd: read-out: Kd (dissociation constant); for ΔG / ΔH (binding enthalpy): ΔImpα3, pH 7.5, 25 °C
Procedure: as §1

[6] = 95% confidence interval in parentheses
[7] = PADI4 or peptide (100 μM) titrated into Impα3 (10 μM), 20 mM Tris pH 7.5, 5 mM TCEP, 150 mM NaCl, 5% glycerol, 25 °C, 95% confidence interval in parentheses
[8] = DOSY, two-exponential fitting, 100 µM, pH 7.0, 10 °C

| SMILES | change in far-UV CD spectrum of complex versus addition spectrum [1] | ΔG [2] | n (binding stoichiometry or percentage of binding-competent protein) [2, 6] | ΔH (binding enthalpy) [2, 6] | Ka (association constant) [2, 7] | hydrodynamic radius Rh ([3]; DOSY, 100 µM, pH 7.0, 10 °C) | translational diffusion coefficient D ([3]; DOSY) | D, self-associated species [3, 8] | Rh, self-associated species [3, 8] | oligomerization state / self-association ([3]; DOSY, pH 7.0, 10 °C) | estimated molecular weight of species in solution ([3]; from Rh = 0.027 MW^1/2, self-associated species) | SEC elution volume [4] | Stokes radius [4] | Ka (association constant) [5] | Kd [5] | ΔG [5] | ΔH (binding enthalpy) [5] | Kd ([2]; PADI4 or peptide (100 μM) titrated into Impα3 (10 μM), 20 mM Tris pH 7.5, 5 mM TCEP, 150 mM NaCl, 5% glycerol, 25 °C, 95% confidence interval in parentheses, read-out: Kd (dissociation constant)) |
| --- | --- | --- | --- | --- | --- | --- | --- | --- | --- | --- | --- | --- | --- | --- | --- | --- | --- | --- |
| CSCC[C@H](NC(=O)[C@@H](NC(=O)[C@H](CC(C)C)NC(=O)[C@@H](NC(=O)[C@@H](NC(=O)[C@H](CCC(=O)O)NC(=O)[C@@H](NC(=O)CNC(=O)[C@@H]1CCCN1C(=O)[C@H](CC(=O)O)NC(=O)[C@H](CC(C)C)NC(=O)[C@@H]1CCCN1C(=O)[C@H](Cc1c[nH]c2ccccc12)NC(=O)[C@@H](NC(=O)[C@H](CO)NC(=O)[C@H](CO)NC(=O)CNC(=O)[C@@H](NC(=O)[C@H](CO)NC(=O)[C@H](CCCCN)NC(=O)[C@H](CCCCN)NC(=O)[C@H](CCCCN)NC(=O)[C@H](C)NC(C)=O)[C@@H](C)O)[C@@H](C)O)C(C)C)C(C)C)[C@@H](C)O)[C@@H](C)O)C(=O)N[C@@H](CCCCN)C(=O)N[C@H](C(=O)N[C@@H](C)C(=O)N[C@@H](CO)C(N)=O)C(C)C [NLS1-PADI4] | large changes | -7.3 kcal/mol | 1.24 (1.15, 1.37) | −21.3 (−25.3, −18.8) kcal/mol | 2.3 (1.6, 3.0) 10^5 M^−1 | 17 ± 2 Å | 8.8 ± 0.8 × 10^−7 cm^2·s^−1 | 4 ± 1 × 10^−7 cm^2·s^−1 | 34 ± 6 Å | hexameric species; also recorded: had a tendency to self-associate at physiological pH | 16,421.9 Da | 14.82 mL | 10.7 Å | 6.5 (4.9, 8.3) 10^5 M^−1 | 1.5 µM | -7.9 kcal/mol | −8.7 (−9.6, −8.0) kcal/mol | – |
| CC[C@H](C)[C@H](NC(=O)[C@H](CCCCN)NC(=O)[C@H](CCC(N)=O)NC(=O)[C@H](CCC(N)=O)NC(=O)[C@H](CCCCN)NC(=O)[C@H](CCCCN)NC(=O)[C@H](CCCCN)NC(=O)[C@H](CCCCN)NC(=O)[C@@H](NC(=O)CNC(=O)[C@H](CCC(=O)O)NC(=O)[C@H](Cc1ccccc1)NC(=O)[C@H](CC(C)C)NC(=O)[C@H](CC(C)C)NC(=O)[C@H](C)NC(=O)[C@H](CCC(=O)O)NC(=O)CNC(=O)[C@H](Cc1c[nH]cn1)NC(=O)CNC(=O)[C@H](CCC(=O)O)NC(=O)[C@H](CC(N)=O)NC(=O)[C@H](CCC(N)=O)NC(=O)[C@H](CCC(N)=O)NC(=O)[C@H](CCC(=O)O)NC(=O)[C@H](CCC(N)=O)NC(=O)[C@H](Cc1ccccc1)NC(=O)[C@H](CC(C)C)NC(=O)[C@H](CCCCN)NC(=O)[C@H](Cc1ccc(O)cc1)NC(C)=O)[C@@H](C)CC)C(N)=O [NLS2-PADI4] | no changes | -6.3 kcal/mol | 1.08 (0.98, 1.20) | −35.7 (−39.8, −31.1) kcal/mol | 0.43 (0.31, 0.57) 10^5 M^−1 | 15.1 ± 0.8 Å | 9.6 ± 0.3 × 10^−7 cm^2·s^−1 | – | – | monomeric | – | 15.15 mL | 9.64 Å | 2.3 (1.5, 3.2) 10^5 M^−1 | 4.3 µM | -7.3 kcal/mol | −11.2 (−13.7, −9.8) kcal/mol | 23 µM |

Entries after “also recorded” stand apart in the source; their conditions may differ.
